The text below walks through data of BindingDB's records for doi:10.1016/j.bmcl.2003.10.007 (Inotek Pharmaceuticals, 2003).

A short description of this assay: Tested for inhibition of poly(ADP-ribose) polymerase-1 (PARP-1) in mouse using Cell protection assay.

For orientation: IC50 means the midpoint of a concentration-inhibition curve. Low values mean greater potency in that assay, high ones weaker potency in that assay. For the compound `CCN(CC)CC(=O)Nc1cccc2c1CNC2=O` [2-Diethylamino-N-(1-oxo-2,3-dihydro-1H-isoindol-4-yl)-acetamide], the midpoint of inhibition, the IC50, lay at 30 µM.
